This note sets out measurements from ChEMBL document CHEMBL1125495, “Inhibitors of human renin with C-termini derived from amides and esters of alpha-mercaptoalkanoic acids” (J Med Chem, 1992).

By UniProt entry, the sequences of proteins in these tests, tags left out. Where a name states a change or a piece, a line headed by the entry shows the natural chain unless it says otherwise.
UniProt P00797: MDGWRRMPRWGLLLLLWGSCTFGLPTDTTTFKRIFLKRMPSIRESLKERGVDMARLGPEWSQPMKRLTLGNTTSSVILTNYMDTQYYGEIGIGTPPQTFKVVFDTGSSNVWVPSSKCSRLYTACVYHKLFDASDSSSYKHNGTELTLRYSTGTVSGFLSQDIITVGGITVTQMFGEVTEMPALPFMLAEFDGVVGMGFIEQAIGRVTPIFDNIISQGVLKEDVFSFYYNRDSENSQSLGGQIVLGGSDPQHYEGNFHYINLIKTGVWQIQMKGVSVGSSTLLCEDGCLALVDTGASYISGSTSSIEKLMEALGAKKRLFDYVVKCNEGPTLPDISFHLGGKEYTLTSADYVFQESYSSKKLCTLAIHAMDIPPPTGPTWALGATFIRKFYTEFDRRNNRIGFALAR

In the experiment the target is Renin (Homo sapiens, UniProt P00797). Kind of experiment: Inhibition of human plasma renin. It counts as cell-free.

pIC50: −log10 of the molar value.

Consider `CCOC(=O)[C@@H](CC(C)C)SC[C@H](O)[C@H](CC1CCCCC1)NC(=O)[C@H](Cc1cnc[nH]1)NC(=O)[C@H](Cc1ccccc1)NC(=O)OC(C)(C)C`, for which the pIC50 (usually −log10 of the IC50, conventionally taken in molar units) was 6.52. With `CCOC(=O)[C@H](CC(C)C)SC[C@H](O)[C@H](CC1CCCCC1)NC(=O)[C@H](Cc1cnc[nH]1)NC(=O)[C@H](Cc1ccccc1)NC(=O)OC(C)(C)C` the figure was 6.54.
